pIC50: −log10 of the molar value. Calls of active or inactive are those of the source. No cut-off for these calls is given here.
How the values were obtained:
[1] = molecular target: T1, Serine/threonine-protein kinase Nek2 (Homo sapiens, UniProt P51955)
T1 sequence (P51955 whole entry): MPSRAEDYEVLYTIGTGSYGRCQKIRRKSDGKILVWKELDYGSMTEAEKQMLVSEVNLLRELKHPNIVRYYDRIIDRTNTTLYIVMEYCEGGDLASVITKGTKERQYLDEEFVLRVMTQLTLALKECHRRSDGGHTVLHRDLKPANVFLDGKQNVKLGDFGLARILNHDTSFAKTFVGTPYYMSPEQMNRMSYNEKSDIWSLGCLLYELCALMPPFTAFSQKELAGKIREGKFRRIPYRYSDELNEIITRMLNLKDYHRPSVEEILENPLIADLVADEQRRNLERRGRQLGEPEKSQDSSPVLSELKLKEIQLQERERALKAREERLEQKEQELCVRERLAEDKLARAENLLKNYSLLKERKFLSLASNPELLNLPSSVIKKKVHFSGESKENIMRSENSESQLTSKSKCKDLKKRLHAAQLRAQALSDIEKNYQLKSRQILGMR

[2] = test system: Tyrosine-protein kinase Lck (Mus musculus); experiment: Inhibition of mouse LCK at 2 uM

pIC50 [1] | inhibition [2] | Structure (SMILES)
6.80 | – | CC(Oc1cc(-n2cnc3ccc(OC4CCN(C)CC4)cc32)sc1C(N)=O)c1ccccc1C(F)(F)F (racemic)
– | Active | CC(Oc1cc(-n2cnc3cc(OC4CCN(C)CC4)ccc32)ccc1C(N)=O)c1ccccc1C(F)(F)F (racemic)

From ChEMBL document CHEMBL1687942, “Benzimidazole inhibitors induce a DFG-out conformation of never in mitosis gene A-related kinase 2 (Nek2) without binding to the back pocket and reveal a nonlinear structure-activity relationship” (J Med Chem, 2011)
